Biological target: Sm.5HTR (Schistosoma mansoni, UniProt G4V5G4)
Assay: cell-based
Method: HEK293 cells (ATCC CRL-1573.3) were cultured in DMEM supplemented with 10% fetal bovine serum (FBS), penicillin (100 units/ml), streptomycin (100 μg/ml), and L-glutamine (290 μg/ml). Cells were transiently transfected (ViaFect, Promega) as per the manufacturer’s protocol at a density of 2x10^6 cells per T-25 cell-culture flask. Cells were transfected with plasmids encoding GloSensor (Promega) and either Sm.5HTR (Smp_126730, GenBank accession number KF444051.1) or Sm.5HTRL (KX150867), bothGPCRs being codon optimized for mammalian expression, or Hs.5HT7a (GenBank accession number NM_000872.4, R&D Systems) subcloned into pCS2(-). Cell culture reagents were from Invitrogen. Epitope tagged constructs were used to verify expression, and untagged constructs used for all luminescence assays.
For assays performed on adherent cells, HEK-293 cells were transferred one day post transfection to 96 well, solid white plates (Corning, cat # 3917) coated with 0.01% poly-L-lysine (Sigma Aldrich) at a density of 5 x 10^4 cells / well in DMEM supplemented with 1% dialyzed FBS (Gibco). […] Plates were allowed to equilibrate at room temperature for two hours prior to performing luminescence assays (GloMax-Multi Detection System plate reader, Promega). […]

Amino acid sequences for entries named in this document (tags omitted).
UniProt G4V5G4, entry or part of it: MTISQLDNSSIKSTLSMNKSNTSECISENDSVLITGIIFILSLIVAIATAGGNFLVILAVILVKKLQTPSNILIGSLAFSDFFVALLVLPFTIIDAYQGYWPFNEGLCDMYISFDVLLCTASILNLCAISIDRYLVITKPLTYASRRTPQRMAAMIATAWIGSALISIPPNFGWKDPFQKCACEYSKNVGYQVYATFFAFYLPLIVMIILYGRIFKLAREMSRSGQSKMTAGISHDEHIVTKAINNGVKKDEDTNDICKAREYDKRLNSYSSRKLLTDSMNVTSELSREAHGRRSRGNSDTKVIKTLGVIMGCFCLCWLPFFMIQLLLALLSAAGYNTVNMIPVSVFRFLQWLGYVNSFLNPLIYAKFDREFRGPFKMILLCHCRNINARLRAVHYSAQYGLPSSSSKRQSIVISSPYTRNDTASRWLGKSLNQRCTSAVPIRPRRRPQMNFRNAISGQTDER

## NCCc1c[nH]c2ccc(O)cc12 [5-HT, Serotonin]
EC50 (cAMP generation, Sm.5HTR)
  EC50: ~1000 nM
EC50 for cAMP generation
  EC50: 703 ± 90 nM
